Protein sequences, listed by entry. Tags and fused reporters are not part of them.
UniProt P27338, whole entry: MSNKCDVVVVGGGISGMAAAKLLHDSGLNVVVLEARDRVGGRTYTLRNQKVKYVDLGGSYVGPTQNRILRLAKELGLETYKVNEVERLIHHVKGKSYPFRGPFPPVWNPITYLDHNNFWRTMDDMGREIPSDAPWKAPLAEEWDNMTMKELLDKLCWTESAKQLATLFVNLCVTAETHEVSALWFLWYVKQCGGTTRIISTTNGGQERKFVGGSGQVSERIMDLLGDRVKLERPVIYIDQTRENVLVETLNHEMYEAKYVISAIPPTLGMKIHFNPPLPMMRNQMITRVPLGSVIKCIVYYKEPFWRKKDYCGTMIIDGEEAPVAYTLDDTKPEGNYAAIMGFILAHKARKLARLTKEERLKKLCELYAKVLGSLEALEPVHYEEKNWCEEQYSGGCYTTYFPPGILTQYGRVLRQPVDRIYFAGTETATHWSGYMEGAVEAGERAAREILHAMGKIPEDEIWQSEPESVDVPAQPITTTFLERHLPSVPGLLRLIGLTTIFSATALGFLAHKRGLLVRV

In ChEMBL document CHEMBL1138489, “Chalcones: a valid scaffold for monoamine oxidases inhibitors” (J Med Chem, 2009):

Key:
[1] = molecular target: Amine oxidase [flavin-containing] B (Homo sapiens, UniProt P27338)
Homo sapiens = species on record: Homo sapiens; experiment: Selectivity index, ratio of inhibition of human recombinant MAO-A at 20 uM or 50 uM to IC50 for human recombinant MAO-B

With `COc1ccc(C(=O)/C=C/c2ccc(Cl)cc2)c(O)c1` the IC50 [1] was 4.4 nM and the Ratio IC50 (Homo sapiens) was > 11400.
